Measured values: ChEMBL document CHEMBL1125016, “Synthesis and evaluation of N-substituted cis-N-methyl-2-(1-pyrrolidinyl)cyclohexylamines as high affinity sigma receptor ligands. Identification of a new class of highly potent and selective sigma receptor probes” (1990)

By UniProt entry, the sequences of proteins in these tests, tags left out.
UniProt P41144, whole entry: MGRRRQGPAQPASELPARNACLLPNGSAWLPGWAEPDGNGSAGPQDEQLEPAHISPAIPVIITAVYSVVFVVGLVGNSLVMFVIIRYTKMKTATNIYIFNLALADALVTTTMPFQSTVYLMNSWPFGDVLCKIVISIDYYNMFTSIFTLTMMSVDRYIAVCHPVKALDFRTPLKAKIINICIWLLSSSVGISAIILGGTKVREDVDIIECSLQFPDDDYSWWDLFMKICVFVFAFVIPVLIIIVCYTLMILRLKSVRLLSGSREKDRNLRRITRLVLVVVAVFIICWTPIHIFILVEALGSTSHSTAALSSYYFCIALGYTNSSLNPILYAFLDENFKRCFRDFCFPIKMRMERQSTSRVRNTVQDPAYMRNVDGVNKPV

Assays:
[1] = biological target: Kappa-type opioid receptor (Cavia porcellus) (UniProt P41144); test: Binding affinity against opioid receptor kappa 1 using [3H]U-69593 as a radioligand
[2] = biological target: Kappa-type opioid receptor (Cavia porcellus) (UniProt P41144); test: Binding affinity against opioid receptor kappa 1 using with [3H]bremazocine as radioligand

Compound | Control [1] [%] | Control [2] [%]
CN(C(=O)Cc1ccccc1)[C@@H]1CCCC[C@@H]1N1CCCC1 | 69.5 | –
CN(C(=O)Cc1ccc(Cl)cc1Cl)[C@@H]1CCCC[C@@H]1N1CCCC1 | 27.2 | 93
CN(C(=O)Cc1ccc([N+](=O)[O-])cc1)[C@@H]1CCCC[C@@H]1N1CCCC1 | 51.6 | –
CC(=O)N(C)[C@H]1CCCC[C@H]1N1CCCC1 | 96.5 | 112
CN(C(=O)Cc1ccccc1Cl)[C@@H]1CCCC[C@@H]1N1CCCC1 | 51 | 104
CN(/C(S)=N/c1ccc(Cl)c(Cl)c1)[C@@H]1CCCC[C@@H]1N1CCCC1 | 68.7 | 100
CN(C(=O)Cc1cc(Cl)c(Cl)cc1N)[C@@H]1CCCC[C@@H]1N1CCCC1 | 8.18 | 95.2
CN(C(=O)Cc1cc(Cl)c(Cl)cc1[N+](=O)[O-])[C@@H]1CCCC[C@@H]1N1CCCC1 | 3.78 | 92.2
CN(C(=O)Cc1cccc([N+](=O)[O-])c1)[C@@H]1CCCC[C@@H]1N1CCCC1 | 28 | –
CN(C(=O)Cc1ccc(Cl)cc1)[C@@H]1CCCC[C@@H]1N1CCCC1 | 39.6 | –
CN(C(=O)Cc1c(Cl)cccc1Cl)[C@@H]1CCCC[C@@H]1N1CCCC1 | 18.9 | 104
CN(C(=O)Cc1cccc(Cl)c1)[C@@H]1CCCC[C@@H]1N1CCCC1 | 42.7 | –
CN(C(=O)Cc1ccc(Br)cc1)[C@@H]1CCCC[C@@H]1N1CCCC1 | 32.8 | –
CN(C(=O)Cc1ccccc1[N+](=O)[O-])[C@@H]1CCCC[C@@H]1N1CCCC1 | 78.3 | –
CN(C(=O)Cc1cccc2ccccc12)[C@H]1CCCC[C@H]1N1CCCC1 | 16.1 | 96.1
CN(C(=O)Cc1cccnc1)[C@H]1CCCC[C@H]1N1CCCC1 | 91.8 | 93.3
CN(C(=O)Cc1ccsc1)[C@H]1CCCC[C@H]1N1CCCC1 | 73.9 | –
CN(C(=O)Nc1ccc(Cl)c(Cl)c1)[C@@H]1CCCC[C@@H]1N1CCCC1 | 43.9 | –
CN(C(=O)OCc1ccccc1)[C@@H]1CCCC[C@@H]1N1CCCC1 | 95 | 98.3
